Measurements: PubChem BioAssay AID1530 (NMMLSC, 2009)
The list shows a part of the results, in another mix than the full data. Calls of active or inactive are those of the source. No stated cut-off is given here; in the data, active means percent response above about 24% (passing the limit was not always enough); inactive means the rest.

Tested on: MEKK2 (MAP3K2) mutant PB1 domain binding to MEK5, human
Assay: MEK5 binding signal on mutant MEKK2 PB1, primary screen, biochemical, multiplex bead flow cytometry, Alexa488-MEK5 (AID 1530)
Conditions: at 10 µM, active compounds read high

Compound | percent response
CCN1CCC(Nc2cccc(F)c2)CC1 | inactive: 0%
CN(C)c1ccc(C(=O)NCC2(N3CCCCC3)CCCCC2)cc1 | inactive: -1%
COc1cc(OC)cc(C(=O)NCC2(N3CCCCC3)CCCCC2)c1 | inactive: 8%
Fc1ccccc1NC1CCN(Cc2ccccc2)CC1 | inactive: -2%
CCC(CO)(C(=O)OC1CN2CCC1CC2)c1ccccc1 (centres undefined) | inactive: 7%
COc1cccc(C(=O)N(c2cc(C)cc(C)c2)C2CCN(C(=O)OC(C)(C)C)CC2)c1 | inactive: 1%
COc1cc(OC)cc(C(=O)NCC2(N3CCOCC3)CCCCC2)c1 | inactive: 1%
CCCOc1ccc(C)cc1CN(CCCl)CCCl | inactive: -5%
CN1CCC(Nc2ccc(Cl)cc2)CC1 | inactive: 3%
CN1CCC(Nc2ccc(F)c(Cl)c2)CC1 | inactive: 2%
CCOc1ncccc1C(=O)NCC1(N2CCOCC2)CCCCC1 | inactive: -5%
CCCOc1ccc(C(=O)NCC2(N(C)C)CCCCC2)cc1 | inactive: 8%
O=C(O)C1(Nc2ccccc2)CCN(Cc2ccccc2)CC1 | inactive: 0%
CC(C)(C)OC(=O)N1CCC(Nc2ccccc2)CC1 | inactive: 2%
CCOC(=O)N1CCC(Nc2ccc(C)cc2)CC1 | inactive: 4%
O=C(OC1CN2CCC1CC2)C1c2ccccc2C=Cc2ccccc21 (centres undefined) | inactive: 9%
COc1ccc(C(=O)NCC2(N3CCOCC3)CCCCC2)cc1OC | inactive: -14%
CCCN1CCC(Nc2cc(OC)cc(OC)c2)CC1 | inactive: 7%
c1ccc(CN2CCC(Nc3ccccc3)CC2)cc1 | inactive: -1%
CN(C)C1(CNC(=O)c2cccc(C#N)c2)CCCCC1 | inactive: 8%
CC(C)(C)OC(=O)N1CCC(N(C(=O)c2ccccc2)c2ccc(Cl)cc2)CC1 | inactive: -3%
N#Cc1ccc(C(=O)NCC2(N3CCCCC3)CCCCC2)cc1 | inactive: 8%
O=C(NCC1(N2CCCCC2)CCCCC1)c1cccc(C(F)(F)F)c1 | inactive: 0%
COc1ccc(NC2CCN(C(=O)OC(C)(C)C)CC2)cc1 | inactive: -12%
CN1CCN(CCOC(=O)C(O)(c2ccccc2)c2ccccc2)CC1 | inactive: 0%
O=C(NCC1(N2CCOCC2)CCCCC1)c1cc(=O)[nH]c2ccccc12 | inactive: 5%
COc1cc(C(=O)NCC2(N3CCCCC3)CCCCC2)ccc1OC(F)F | inactive: 1%

Compound | percent response
O=C(NCC1(N2CCCCC2)CCCCC1)c1ccc(OC(F)F)cc1 | inactive: -1%
O=C(NCC1(N2CCCCC2)CCCCC1)c1cccc([N+](=O)[O-])c1 | inactive: -2%
N#CC1(Nc2ccccc2)CCN(CCc2ccccc2)CC1 | inactive: 11%
CCN1CCC(Nc2ccc(Cl)cc2)CC1 | inactive: 4%
CN1CCC(Nc2cccc(F)c2)CC1 | inactive: -3%
CCCOc1ccc(C(=O)NCC2(N(C)C)CCCCC2)cc1OC | inactive: 2%
CN(C)c1cccc(C(=O)NCC2(N3CCCCC3)CCCCC2)c1 | inactive: 7%
COc1ccc(CN(CCCl)CCCl)cc1Cl | inactive: -15%
CC(C)c1ccc(NC2CCN(C(=O)OC(C)(C)C)CC2)cc1 | inactive: -1%
COc1cc(OC)c(C(=O)NCC2(N(C)C)CCCCC2)cc1OC | inactive: 3%
O=C(NCC1(N2CCOCC2)CCCCC1)c1cc2ccccc2o1 | inactive: 5%
Cc1cc(C)cc(N(C(=O)c2ccccc2)C2CCN(C(=O)OC(C)(C)C)CC2)c1 | inactive: 13%
CCOC(=O)N1CCC(Nc2ccc(OC)cc2)CC1 | inactive: -5%
O=C(OC1CN2CCC1CC2)C1c2ccccc2Oc2ccccc21 (centres undefined) | inactive: 6%
N#CC1(Nc2ccccc2)CCN(Cc2ccccc2)CC1 | inactive: 3%
O=C(NCC1(N2CCCCC2)CCCCC1)c1ccc(=O)[nH]c1 | inactive: 8%
COc1ccc(C(=O)NCC2(N3CCCCC3)CCCCC2)c(OC)c1OC | inactive: 3%
CC(C)(C)OC(=O)N1CCC(N(C(=O)c2ccccc2)c2ccc(F)cc2)CC1 | inactive: 2%
COc1ccc(C(=O)NCC2(N3CCCCC3)CCCCC2)cc1 | inactive: 1%
CSc1ccccc1C(=O)NCC1(N2CCCCC2)CCCCC1 | inactive: -2%
Cc1ccc(OCC(C)C)c(CN(CCCl)CCCl)c1 | inactive: 5%
COc1cc(C(=O)NCC2(N(C)C)CCCCC2)ccc1OC(F)F | inactive: 2%
CCOC(=O)N1CCC(Nc2cccc(C)c2)CC1 | inactive: 6%
CCOc1ccc(C)cc1CN(CCCl)CCCl | inactive: -1%
CCOC(=O)N1CCC(Nc2ccc(F)cc2)CC1 | inactive: 4%
COc1ccc(NC2CCN(CCc3ccccc3)CC2)c(OC)c1 | inactive: 10%
O=C(NCC1(N2CCCCC2)CCCCC1)c1ccc(F)cc1 | inactive: -3%
